Experimental data taken from publication PMC7024360.

How the values were obtained:
[1] = target: T1, BC2L-C N-terminal lectin domain (BC2L-CN, rBC2L-CN2) (Burkholderia cenocepacia, UniProt B4EH86); assay: ITC at […] °C and X-ray co-crystal structure ([…] Å)
[2] = target: T1, BC2L-C N-terminal lectin domain (BC2L-CN, rBC2L-CN2); assay: ITC at […] °C and X-ray co-crystal structure ([…] Å); remark: listed apart in the source
[3] = target: T1, BC2L-C N-terminal lectin domain (BC2L-CN, rBC2L-CN2); assay: ITC at […] °C (single measurement)

Question: Which Kd [1] does the source give for `CC(=O)N[C@H]1[C@H](O[C@H]2[C@@H](O)[C@@H](CO)O[C@H](O[C@@H]3[C@H](O)[C@@H](O)[C@H](O[C@H]4[C@H](O)[C@@H](O)C(O)O[C@@H]4CO)O[C@@H]3CO)[C@@H]2O)O[C@H](CO)[C@H](O)[C@@H]1O[C@@H]1O[C@H](CO)[C@H](O)[C@H](O)[C@H]1O[C@@H]1O[C@@H](C)[C@@H](O)[C@@H](O)[C@@H]1O` (stereo partly drawn) [GloboH (H-type 3), Globo H hexasaccharide] here?
Answer: 26 ± 1.7 µM

Question: For `CC(=O)N[C@H]1[C@H](O[C@H]2[C@@H](O)[C@@H](CO)OC(O)[C@@H]2O)O[C@H](CO)[C@@H](O)[C@@H]1O[C@@H]1O[C@H](CO)[C@H](O)[C@H](O)[C@H]1O[C@@H]1O[C@@H](C)[C@@H](O)[C@@H](O)[C@@H]1O` (stereo partly drawn) [H-type 1, H-type 1 tetrasaccharide], which Kd [2] is on record?
Answer: 56.6 µM

Question: Which Kd [3] does the source give for `CC(=O)N[C@H]1[C@H](O[C@H]2[C@@H](O)[C@@H](CO)OC(O)[C@@H]2O)O[C@H](CO)[C@@H](O[C@@H]2O[C@H](CO)[C@H](O)[C@H](O)[C@H]2O[C@@H]2O[C@@H](C)[C@@H](O)[C@@H](O)[C@@H]2O)[C@@H]1O[C@@H]1O[C@@H](C)[C@@H](O)[C@@H](O)[C@@H]1O` (stereo partly drawn) [Lewis Y, Lewis Y pentasaccharide] here?
Answer: 52.6 µM
